Data on 1 compound can be found in paper PMC9865020, “Identification of Novel Small Molecule Ligands for JAK2 Pseudokinase Domain” (Pharmaceuticals, 2023).

Protein sequences, listed by entry. Tags and fused reporters are not part of them. Lines headed by an entry give the natural chain unless they say otherwise; changes in a name come on top. Residues count along the entry.
UniProt P52333, 811-1124 D949N: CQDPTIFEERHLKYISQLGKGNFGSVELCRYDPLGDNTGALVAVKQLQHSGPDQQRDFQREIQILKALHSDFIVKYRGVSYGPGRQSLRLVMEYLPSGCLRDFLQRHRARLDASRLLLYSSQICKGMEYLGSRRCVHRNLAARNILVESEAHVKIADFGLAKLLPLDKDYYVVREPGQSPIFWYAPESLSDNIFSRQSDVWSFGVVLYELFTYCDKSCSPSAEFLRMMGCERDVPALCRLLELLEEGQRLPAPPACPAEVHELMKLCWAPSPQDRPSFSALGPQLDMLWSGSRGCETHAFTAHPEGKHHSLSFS
UniProt O60674, 545-809 V617F limits assumed: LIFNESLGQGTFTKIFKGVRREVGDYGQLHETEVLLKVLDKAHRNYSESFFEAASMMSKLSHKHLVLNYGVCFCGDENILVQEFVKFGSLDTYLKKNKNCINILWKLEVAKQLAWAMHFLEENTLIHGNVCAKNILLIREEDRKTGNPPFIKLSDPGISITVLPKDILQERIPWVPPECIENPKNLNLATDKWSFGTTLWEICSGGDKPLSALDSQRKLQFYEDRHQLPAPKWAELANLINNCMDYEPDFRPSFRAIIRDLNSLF
UniProt O60674, 503-827: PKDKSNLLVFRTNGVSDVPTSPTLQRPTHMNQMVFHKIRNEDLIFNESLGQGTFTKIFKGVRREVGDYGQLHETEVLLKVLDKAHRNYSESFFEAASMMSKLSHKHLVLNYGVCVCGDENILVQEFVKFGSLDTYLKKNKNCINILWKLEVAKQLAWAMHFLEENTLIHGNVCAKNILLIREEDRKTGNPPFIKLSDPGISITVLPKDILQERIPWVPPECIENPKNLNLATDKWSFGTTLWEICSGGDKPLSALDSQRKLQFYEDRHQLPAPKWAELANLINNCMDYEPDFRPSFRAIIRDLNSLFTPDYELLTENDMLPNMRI
UniProt O60674, 836-1132 D976N: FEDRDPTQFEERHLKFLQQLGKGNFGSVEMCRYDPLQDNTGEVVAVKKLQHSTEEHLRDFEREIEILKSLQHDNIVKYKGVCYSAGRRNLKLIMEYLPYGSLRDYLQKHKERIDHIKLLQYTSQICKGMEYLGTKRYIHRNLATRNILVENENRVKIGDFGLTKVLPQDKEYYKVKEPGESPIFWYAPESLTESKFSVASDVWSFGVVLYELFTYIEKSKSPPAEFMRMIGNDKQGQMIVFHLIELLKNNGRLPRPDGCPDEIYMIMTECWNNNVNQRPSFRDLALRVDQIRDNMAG
UniProt P29597, 564-876: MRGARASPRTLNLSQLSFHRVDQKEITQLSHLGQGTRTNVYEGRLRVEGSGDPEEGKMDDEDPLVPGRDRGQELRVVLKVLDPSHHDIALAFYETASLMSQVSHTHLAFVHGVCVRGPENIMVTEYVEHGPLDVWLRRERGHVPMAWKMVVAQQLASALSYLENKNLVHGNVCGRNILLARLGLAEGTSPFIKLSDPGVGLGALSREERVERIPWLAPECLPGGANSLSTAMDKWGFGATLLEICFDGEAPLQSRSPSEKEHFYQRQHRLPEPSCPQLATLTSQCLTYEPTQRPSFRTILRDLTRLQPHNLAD

Holding throughout (experiment): More sensitive FP binding assay, Bodipy FL-labeled JNJ-7706621 tracer
For assay [1], the target named is JAK3 JH1 D949N (Homo sapiens, UniProt P52333, D949N).
Assay [2] concerns the target JAK2 JH2 V617F (Homo sapiens, UniProt O60674, V617F). On the set-up: Hyperactive mutation V617F in the JAK2 regulatory pseudokinase domain (JH2); His tag (C); made in house; host or cells: High Five or Sf9 insect cells.
The target in assay [3] is T1, TYK2 JH1 D1023N (Homo sapiens, UniProt P29597, D1023N).
T1 sequence (P29597 886-1187 D1023N): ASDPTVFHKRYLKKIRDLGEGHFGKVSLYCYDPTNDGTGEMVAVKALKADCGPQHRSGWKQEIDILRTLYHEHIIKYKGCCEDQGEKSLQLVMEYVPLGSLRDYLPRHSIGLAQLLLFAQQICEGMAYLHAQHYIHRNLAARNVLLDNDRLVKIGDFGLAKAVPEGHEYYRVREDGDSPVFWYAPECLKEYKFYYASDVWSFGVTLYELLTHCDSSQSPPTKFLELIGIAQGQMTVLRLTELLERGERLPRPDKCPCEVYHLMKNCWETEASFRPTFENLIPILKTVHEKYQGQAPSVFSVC

Assay [4] has as its target TYK2 JH2 (Homo sapiens, UniProt P29597).
Assay [5] deals with T2, JAK2 JH2 (Homo sapiens, UniProt O60674).
T2 construct: Human JAK2 JH2 (503-827); hexa histidine-tag (C); made in house; host or cells: High Five or Sf9 insect cells

Assay [6] has as its target JAK2 JH1 D976N (Homo sapiens, UniProt O60674, D976N). More on the design: JAK2 JH1 (836-1132) D976N; hexa histidine-tag (C); made in house; host or cells: High Five or Sf9 insect cells.

`c1nc2nc(Nc3ccc(N4CCOCC4)cc3)nc(NC3CCCCC3)c2[nH]1` [Compound 7, Reversine, reference compound]: the IC50 (commonly the concentration needed to halve the response being measured) in assay [1] came to 300 nM; in assay [2], 1900 nM; in assay [3], 120 nM; in assay [4], 60 nM; in assay [5] it was 1300 nM; in assay [6], 680 nM.
